Measurements from patent US20110142757A1, “NOVEL COMPOUNDS AND THEIR USES IN DIAGNOSIS” (the University of Sydney, priority 2008, published 2011).

Chains of the proteins cited; added tags and fusions are not shown.
UniProt P30536, whole entry: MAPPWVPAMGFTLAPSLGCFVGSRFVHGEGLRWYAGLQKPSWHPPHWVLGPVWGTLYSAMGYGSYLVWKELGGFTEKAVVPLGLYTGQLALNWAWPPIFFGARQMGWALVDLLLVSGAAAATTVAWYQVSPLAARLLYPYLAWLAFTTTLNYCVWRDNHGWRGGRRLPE

Molecular target: T1, human TSPO (Homo sapiens, UniProt P30536)
T1 construct: expressed in transfected cells; host or cells: HEK293, mitochondrial fraction
Assay: [3H]PK11195 competition binding assay, mitochondrial membranes of HEK293 cells transfected with human TSPO
Settings: competition with 6 nM [3H]PK11195, one-site or two-site competition fit, read-out: Binding Affinity (Ki) ± Standard Error, Site 1
Description: Radioligand Binding Experiments Using [^3H]PK11195
Cell Culture and Membrane Preparation
Human embryonic kidney cells (HEK293) were transfected with human TSPO as described previously (Riond, J., Mattei, M. G., Kaghad, M., Dumont, X., Guillemot, J. C., Le Fur, G., Caput, D., Ferrara, P. (1991) Molecular cloning and chromosomal localization of a human peripheral-type benzodiazepine receptor. Eur. J. Biochem. 195, 305-311; Vin, V., Leducq, N., Bono, F., Herbert, J. M. (2003) Binding characteristics of SSR180575, a potent and selective peripheral benzodiazepine receptor ligand. Biochem. Biophys. Res. Comm. 310, 785-790). […]
The mitochondrial fraction of the cells was obtained by homogenising the cell pellet in three volumes of 50 mM Tris-HCl (pH 7.5), containing 0.33 M sucrose, 1 mM MgCl2, and 25 mM KCl (Solution, 1). […] The resultant pellet was, then resuspended in an appropriate amount of reaction buffer (50 mM Tris-HCl, pH 7.5), and protein concentration determined using a Bio-Rad Lowry Protein Assay Kit. […]
After incubation, assays were terminated by rapid filtration through a 96-well filter plate in ice-cold incubation buffer (50 mM Tris-HCl, pH 7.5), and washed 10 times with 200 μl of ice-cold incubation buffer, using a Brandel 96-sample vacuum harvester. […] Data was analysed and fit to a curve using GraphPad Prism 5.0.

In the case of `CCC(C)N(C)C(=O)c1cc2ccccc2c(-c2ccccc2Cl)n1` (stereo not shown) [PK11195], the Ki is reported as 6.08 ± 0.33 nM.
